Patent US6562588B2, “Sialidase and recombinant cell lines” (Genentech, Inc., priority 1993, dated 2003)

How the values were obtained:
[1] = Enzyme activity dependence on pH; type: biochemical, Chinese hamster; conditions: purified enzyme, 4-MU-Neu5Ac as substrate
Experimental: FIG. 4: Enzyme activity dependence on pH. Assays were carried out with either the purified enzyme) solid filled points or crude cell lysates (clear points) using 4-MU-Neu5Ac as substrate (see Methods). Phosphate buffer: squares. Acetate buffer: triangles.
A similar result is obtained when the enzyme is assayed in crude cell homogenates, except that the level of activity in the acidic range, pH 3.5-4.5 is slightly greater than with the purified enzyme, FIG. 4. We assume that this activity is due to the presence of the lysosomal sialidase in the crude homogenate which has a pH optimum in the acidic region [Warner et al. Biochemistry, 18:2783 (1979)].

[2] = Stability of the purified sialidase preparation; type: physicochemical
Experimental: The protein is stable during purification and the fractions are stored frozen at −20° C. between purification steps when necessary. […] Even when 20% glycerol is included, about 15% of the activity is lost upon a single freeze thaw cycle.

B1: CHO cell sialidase: sialidase purified from cell culture fluid of CHO 14.16 Chinese hamster ovary cells (protein)
chain: MATCPVLQKETLFQTGDYAYRIPALIYLSKQKTLLAFAEKRLTKTDEHADLFVLRRGSYNADTHQVQWQAEEVVTQAYLEGHRSMSPCPLYDKQTRTLFLFFIAVRGQISEHHQLQTGVNVTRLCHITSTDHGKTWSAVQDLTDTTIGSTHQDWATFGVGPGHCLQLRNTAGSLLVPAYAYRKQPPIHAPAPSAFCFLSHDHGSTWELGHFVSQNSLECQVAEVGTGAERVVYLNARSCLGARVQAQSPNSGLDFQDNQVVSKLVEPPKGCHGSVIAFPNPTSKADALDVWLLYTHPTDSRKRTNLGVYLNQKPLDPTTWSAPTLLATGICAYSDLQNMGHGPDGSPQFGCLYESNNYEEIVFLMFTLKQAFPAVFGAQ
[1]
  pH optimum: ~5.9 pH
[2]; final preparation with 20% glycerol
  activity lost upon a single freeze thaw cycle: about 15%
[2]; −70° C.
  stability when stored frozen: three
